Assay results from patent publication US20150359854A1 (HUMAN MATRIX SCIENCES, LLC, priority 2012, published 2015).
“Also recorded” adds a separate entry of the source.

Molecular target: T1, IGF-1R (Homo sapiens, UniProt P08069)
T1 construct: 30-minute treatment of cultured AoSMCs; endogenous in cells; host or cells: human aortic smooth muscle cells (AoSMCs), second passage
Assay: Immunoprecipitation and anti-phospho-Tyr blotting of IGF-1R
Type: cell-based
Conditions: 30 minutes, 0.5 to 10 nmol/L insulin or 10 nmol/L IGF-1, AoSMCs
Procedure: At the end of all treatments, cells from quadruplicate cultures in each experimental group were lysed using NP40 cell lysis buffer (Invitrogen Corp.). Thirty micrograms of protein extracts from each sample was suspended in standard sample buffer, resolved on 4% to 12% gradient SDS-PAGE gels, transferred to nitrocellulose membranes, and subjected to Western blotting using antibodies.
At the end of indicated treatments, the cultured cells were lysed as described, and 300 μL aliquots of cell extracts containing […] were incubated at 4° C. for 3 hours with the aliquots of protein G bound DYNABEADS® (Invitrogen Corp.) that were conjugated with either rabbit polyclonal anti-tropoelastin, goat polyclonal anti-Glut10, or rabbit polyclonal anti-S-Gal antibodies. The beads carrying the final immunoprecipitation products were then washed with PBS, resuspended in sample buffer, and boiled for 5 minutes. The released proteins were then resolved on SDS-PAGE gel and subjected to Western blotting using indicated antibodies.

With IGF-1 the “phosphorylation of IGF-1R” value was “phosphorylated only in cultures treated with IGF-1; also recorded: could only be induced”.
